miR-21 FLuc = miR-21 reporter, rising signal. HeLa miR-21 FLuc reporter, luciferase, 48 h. Potency, µM (titrated, usually from 38.3 µM). 340,000 tested, under 10 active. AID 2288; active = well fitted rising curve with a large enough effect; inconclusive = small, poorly fitted or top-dose-only effect; inactive = no such curve, though single readings can be large or run the other way;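 also: miR-21 action dims this reporter so a rising signal means less miR-21 action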
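HeLa cells endogenously expressing miR-21, stably carrying CMV-driven firefly luciferase with a downstream miR-21 binding site, 2000 cells/well. Titrations up to approximately 40 uM, 48 hours; luciferase luminescence read.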
IL2 activator = IL-2 activation | actives 0.065% (n = 360,000) | AID 652025 | activation, % (series mostly up to about 46 µM) | IL-2 activation reporter assay, cell-based qHTS; stimulated with anti-CD3/CD4/CD28 beads; in transgenic mouse T cells; in the data active means activation above about 50%; inconclusive means mostly about 30% to 49%
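Screening format: compound pinned onto unstimulated transgenic mouse T cells, 60 min incubation, then anti-CD3/anti-CD4/anti-CD28 bead stimulation for 18 hours at 37 degrees C, followed by EGFP and DsRed detection.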
ClpP mod = qHTS Assay for Activators of ClpP; Potency, µM (titrated, usually from 57.5 µM); ATP-dependent Clp protease proteolytic subunit (Bacillus subtilis (strain 168)), P80244; purified B. subtilis ClpP, FRET peptide cleavage, 20 min; actives 1.9% (n = 340,000); active means well fitted falling curve with a large enough effect; inconclusive means small, poorly fitted or top-dose-only effect; inactive means no such curve, though single readings can be large or run the other way; further: the source files actives as falling curves though it sought activators and does not explain the sign; nearly all actives have a fitted effect of over 65% in size
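FRET quenching reversal measured ClpP activation: 10 microg/mL B. subtilis ClpP at pH 8 with the FRET-FV decapeptide, read at 430 nm after 320 nm excitation. The 20-min minus 0-min signal was scaled between DMSO/no-enzyme wells and ADEP (5.8 microM final).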
Nrf2 inh = inhibitors of Nrf2 signaling; A549 ARE-Fluc reporter, luciferase luminescence, 18-24 h; Potency, µM (top dose mostly 46 µM), usual class: inhibitors; actives 2.1% (n = 360,000); AID 504444; further: nearly all actives have a fitted effect of over 60% in size
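Reporter: ARE-Fluc in A549. Exposure: 18-24 h, 37 °C, 5% CO2, 5% FBS OPTI-MEM. Readouts: fluorescent cytotoxicity (CellTiter-Fluor), then luminescent Nrf2 signal after BugLite.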
A549 tox = counter-screen for Nrf2 inhibitors: cytotoxicity in A549 cells. A549 ARE-Fluc cells, CellTiter-Fluor viability, 18-24 h. Potency, µM (top dose mostly 46 µM), most hits filed as inhibitors. actives 0.16% (n = 390,000). AID 504648
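A549 ARE_Fluc cells in 5% FBS OPTI-MEM were exposed to compounds in concentration-response for 18-24 h at 37 deg C. Viability was read by CellTiter-Fluor fluorescence (Ex 405/Em 525) after 30 min, before the luciferase read.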
Nrf2 ARE act = activators of Nrf2 (ARE) signaling. Potency, µM (titrated, usually from 46.1 µM), usual class: activators. actives 0.31% (n = 410,000). AREc32 ARE-luciferase reporter (MCF7-derived line), luminescence, 24 h; further: nearly all actives have a fitted effect of over 65% in size
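ARE activation measured as luciferase luminescence (Steady-Glo, 30 min RT) in AREc32_Fluc cells after 24 hr compound exposure at 37 deg C, 5% CO2; cells seeded overnight at 1000/well in OPTI-MEM, 5% FBS.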
Of the large screens only hits and unclear results are named; the others gave an inactive call. Most compounds without a hit are left out; they make up all but 3.7% or so of the library. Unless noted, the call rests on the fitted dose curve; in most records, active means well fitted curve in the direction sought with a large enough effect; inconclusive means small, poorly fitted or top-dose-only effect, or another doubt; inactive means no such curve, though single readings can be large; an effect the other way counts as inactive or inconclusive.

CC[C@@H](C(=O)[C@@H](C)[C@@H](O)[C@H](C)CCc1ccc(C)c(O)c1C(=O)O)[C@H]1O[C@](CC)([C@H]2CC[C@](O)(CC)[C@H](C)O2)C[C@@H]1C	Nrf2 inh 5.2µM, A549 tox 6.5µM
O=C(COC(=O)c1cc([N+](=O)[O-])ccc1N1CCOCC1)Nc1cccc(F)c1	Nrf2 inh inconclusive, A549 tox 4.6µM
C=CCOC(=O)C1=C(C)NC(SCC(=O)Nc2nccs2)=C(C#N)C1c1ccc(Cl)cc1 (stereo not drawn)	Nrf2 inh inconclusive
CC(=O)C1=C(C)NC(SCC(=O)Nc2nccs2)=C(C#N)C1c1ccccc1Cl (stereo not drawn)	ClpP mod 28µM, Nrf2 inh inconclusive
CNc1ccc(/C=C2\C=Cc3ccccc32)cc1Cl	none (no result: miR-21 FLuc, IL2 activator, Nrf2 inh, A549 tox, Nrf2 ARE act)
Cn1cc(C2NC(=O)c3ccccc3N2)c2ccccc21 (stereo not drawn)	ClpP mod 28µM, Nrf2 inh inconclusive (no result: miR-21 FLuc)
Cc1ccc(C)c(C2NC(=O)c3ccccc3N2)c1 (stereo not drawn)	Nrf2 inh inconclusive
COc1ccc(N/C=C2\C(=O)CCc3c2oc2cc(Cl)c(O)c(Cl)c32)cc1	IL2 activator 268, Nrf2 ARE act 7.1µM
COc1ccc(N/C=C2\CCOC2=O)cc1	none
COc1ccc(-n2c(C)cc(C(=O)COC(=O)c3ccc(O)cc3O)c2C)cc1	Nrf2 inh 13µM, A549 tox inconclusive (no result: miR-21 FLuc)
CN1C2CCC1CC(NS(=O)(=O)c1cc(Cl)c(Cl)cc1Cl)C2 (stereo not drawn)	ClpP mod 35µM
CN1C2CCC1CC(NC(=O)c1ccc(Cl)cc1)C2 (stereo not drawn)	none (no result: ClpP mod)
COc1ccc2nc(N3CCN(C(=O)C4CC4)CC3)sc2c1	none (no result: IL2 activator, Nrf2 inh)
CCCn1c(=O)[nH]c(=O)c2c1nc(-c1ccc(OC(F)(F)C(F)C(F)(F)F)cc1)n2CCOC (stereo not drawn)	ClpP mod 28µM
CCCn1c(=O)[nH]c(=O)c2c1nc(-c1ccc(C#N)cc1)n2CCOC	none (no result: ClpP mod)
O=C1c2ccccc2CCCC12N=NCC2c1cccc2ccccc12 (stereo not drawn)	Nrf2 inh 16µM
Cc1cc(C)cc(NC(=O)c2sc3nc(-c4ccccc4)cn3c2C)c1	none (no result: IL2 activator, Nrf2 inh)
CCc1ccc(C(=O)c2cn(Cc3ccccc3)c3cc(OC)c(OC)cc3c2=O)cc1	miR-21 FLuc inconclusive, Nrf2 inh inconclusive, A549 tox 21µM (no result: IL2 activator)
COc1cc2c(=O)c(C(=O)c3ccc(C)c(C)c3)cn(Cc3ccccc3F)c2cc1OC	Nrf2 inh inconclusive, A549 tox 21µM (no result: IL2 activator)
COCCCn1c(C)cc(C(=O)COC(=O)C23CC4CC(CC(O)(C4)C2)C3)c1C	ClpP mod 28µM, Nrf2 inh inconclusive (no result: miR-21 FLuc)
Cn1cccc1C(=O)NC(=O)COC(=O)C12CC3CC(CC(O)(C3)C1)C2	none (no result: Nrf2 inh)
CNc1oc(-c2ccccc2Cl)nc1C#N	ClpP mod inconclusive (no result: Nrf2 inh)
CNc1oc(-c2cccc3ccccc23)nc1C#N	ClpP mod 16µM
O=C(COc1ccccc1F)OCc1cc(=O)n2nc(-c3cccs3)sc2n1	ClpP mod inconclusive, Nrf2 inh inconclusive (no result: IL2 activator)
O=C(Nc1ccccc1)C1=C[C@@H](c2csc3ccccc23)C[C@@H](OCc2ccc(CO)cc2)O1	Nrf2 inh 16µM
CCOc1ccc(N(C(=O)c2ccccc2F)S(=O)(=O)c2ccc3c(c2)n(C)c(=O)n3C)cc1	none (no result: IL2 activator)
CCOC(=O)C1CCN(C(=O)Cn2nc(C)n3c(cc4c(OC)cccc43)c2=O)CC1	ClpP mod 2.8µM (no result: IL2 activator)
COc1cccc2c1cc1c(=O)n(CC(=O)N3CCN(c4cccc(C(F)(F)F)c4)CC3)nc(C)n12	ClpP mod 16µM (no result: IL2 activator)
CCOC(=O)C1CCCN(C(=O)Cn2nc(C)n3c(cc4c(OC)cccc43)c2=O)C1 (stereo not drawn)	none
N#C/C(=N\Nc1c(Cl)cccc1Cl)C(=O)NN	ClpP mod 16µM
CCOC(=O)NC(=O)/C(C#N)=N/Nc1c(F)cccc1F	none (no result: Nrf2 inh)
Cc1sc2ncn(CCn3cnc4sc(C)c(C)c4c3=O)c(=O)c2c1C	Nrf2 inh 16µM
Cc1sc2ncn(CC(=O)NCC(=O)N3CCN(c4ccc(F)cc4)CC3)c(=O)c2c1C	Nrf2 inh 8.2µM (no result: ClpP mod)
COc1ccccc1NC(=O)CCCNC(=O)Cn1cnc2sc(C)c(C)c2c1=O	ClpP mod 28µM
COc1cccc(C(=O)c2cn(CC(=O)Nc3cccc(Cl)c3C)c3nc(C)ccc3c2=O)c1	none (no result: IL2 activator)
O=S1(=O)N=C(Oc2ccc(-c3ccccc3)cc2)c2ccccc21	none (no result: miR-21 FLuc, IL2 activator, ClpP mod, Nrf2 ARE act)
CC(C)(C)OC(=O)n1c2ccsc2c2cnn(Cc3ccccc3F)c(=O)c21	none (no result: miR-21 FLuc, IL2 activator, ClpP mod, Nrf2 ARE act)
O=C(CSc1ccc(Cl)cc1)Nc1ccc(-c2nc3ccccc3[nH]2)cc1	ClpP mod 25µM
O=C(/C=C/c1ccco1)Nc1ccc(-c2nc3ccccc3[nH]2)cc1	A549 tox 23µM, Nrf2 ARE act inconclusive
O=C(CSc1ccccc1)Nc1nc2ccccc2[nH]1	Nrf2 inh inconclusive
CN(Cc1ccccc1)c1nnc(NC(=O)Nc2cccc(Br)c2)s1	A549 tox inconclusive (no result: IL2 activator)
CCOc1ccc(OCC)c(NC(=O)CCc2nc3cccnc3n2Cc2cccs2)c1	none (no result: IL2 activator)
CCOC(=O)c1c(C)oc2nc(C)nc(NCC3CCN(Cc4ccc(Cl)cc4)CC3)c12	none (no result: IL2 activator)
O=C(Nc1ccn(Cc2ccccc2F)n1)c1ccc(COc2ccccc2Cl)cc1	Nrf2 inh 18µM
O=C(Nc1ccn(Cc2c(F)c(F)cc(F)c2F)n1)c1ccc(COc2ccccc2Cl)cc1	Nrf2 inh 21µM
N#Cc1ccc(C(=O)NCC(=O)OC(C(=O)Nc2cc(C(F)(F)F)ccc2Cl)c2ccccc2)cc1 (stereo not drawn)	none (no result: miR-21 FLuc, IL2 activator, ClpP mod, Nrf2 ARE act)
c1nc(NCc2ccoc2)c2cc(-c3ccc4c(c3)OCO4)ccc2n1	none (no result: miR-21 FLuc, IL2 activator, ClpP mod, Nrf2 ARE act)
Cc1cccc2c(C(O)c3c[nH]c4c(C)cccc34)c[nH]c12	none (no result: miR-21 FLuc, IL2 activator, Nrf2 inh, A549 tox, Nrf2 ARE act)
O=C(/C=C/c1cccs1)c1cc(Cl)ccc1O	Nrf2 ARE act 14µM
O=C(C=Cc1cccs1)c1ccc(Cl)s1	Nrf2 ARE act 22µM (no result: miR-21 FLuc, ClpP mod)
CCOC(=O)N1CCC(NC(=O)c2ccc3c(c2)N(Cc2cc(C)ccc2C)C(=O)c2ccccc2S3=O)CC1 (stereo not drawn)	none (no result: IL2 activator)
COCCn1c(=N)c(C(=O)NCCc2ccccc2)cc2c(=O)n3cccc(C)c3nc21	ClpP mod 1.4µM (no result: miR-21 FLuc)
Cc1cccn2c(=O)c3cc(C(=O)NCCc4ccccc4)c(=N)n(CCCn4ccnc4)c3nc12	ClpP mod 18µM

Screening results deposited in PubChem by National Center for Advancing Translational Sciences (NCATS).
